Reference: PMC9698057, “Insights into Antimalarial Activity of N-Phenyl-Substituted Cinnamanilides” (Molecules, 2022)

Experiment: Lipophilicity determination by RP-HPLC (log of capacity factor k)
Type: physicochemical

## O=C(/C=C/c1ccccc1)Nc1ccccc1F [Compound 4]
  log k: 0.1330
